Experiments:
[1] = target: T1, human CD163, ligand-affinity purified from Triton X-100 solubilised human spleen, placenta and liver membranes (human, UniProt Q86VB7 42-1156); assay: solid phase competition, 125I-Hp(2-2)-Hb on CD163 in microtiter wells
T1 construct: mature; Natural receptor purified from tissue membranes on Hp-Hb Sepharose; immobilised on BIAcore CM5 chips or in microtiter wells; also called HbSR; Hp-Hb receptor

By UniProt entry, the sequences of proteins in these tests, tags left out. Residues count along the entry.
UniProt O60494, 36-3623 limits assumed: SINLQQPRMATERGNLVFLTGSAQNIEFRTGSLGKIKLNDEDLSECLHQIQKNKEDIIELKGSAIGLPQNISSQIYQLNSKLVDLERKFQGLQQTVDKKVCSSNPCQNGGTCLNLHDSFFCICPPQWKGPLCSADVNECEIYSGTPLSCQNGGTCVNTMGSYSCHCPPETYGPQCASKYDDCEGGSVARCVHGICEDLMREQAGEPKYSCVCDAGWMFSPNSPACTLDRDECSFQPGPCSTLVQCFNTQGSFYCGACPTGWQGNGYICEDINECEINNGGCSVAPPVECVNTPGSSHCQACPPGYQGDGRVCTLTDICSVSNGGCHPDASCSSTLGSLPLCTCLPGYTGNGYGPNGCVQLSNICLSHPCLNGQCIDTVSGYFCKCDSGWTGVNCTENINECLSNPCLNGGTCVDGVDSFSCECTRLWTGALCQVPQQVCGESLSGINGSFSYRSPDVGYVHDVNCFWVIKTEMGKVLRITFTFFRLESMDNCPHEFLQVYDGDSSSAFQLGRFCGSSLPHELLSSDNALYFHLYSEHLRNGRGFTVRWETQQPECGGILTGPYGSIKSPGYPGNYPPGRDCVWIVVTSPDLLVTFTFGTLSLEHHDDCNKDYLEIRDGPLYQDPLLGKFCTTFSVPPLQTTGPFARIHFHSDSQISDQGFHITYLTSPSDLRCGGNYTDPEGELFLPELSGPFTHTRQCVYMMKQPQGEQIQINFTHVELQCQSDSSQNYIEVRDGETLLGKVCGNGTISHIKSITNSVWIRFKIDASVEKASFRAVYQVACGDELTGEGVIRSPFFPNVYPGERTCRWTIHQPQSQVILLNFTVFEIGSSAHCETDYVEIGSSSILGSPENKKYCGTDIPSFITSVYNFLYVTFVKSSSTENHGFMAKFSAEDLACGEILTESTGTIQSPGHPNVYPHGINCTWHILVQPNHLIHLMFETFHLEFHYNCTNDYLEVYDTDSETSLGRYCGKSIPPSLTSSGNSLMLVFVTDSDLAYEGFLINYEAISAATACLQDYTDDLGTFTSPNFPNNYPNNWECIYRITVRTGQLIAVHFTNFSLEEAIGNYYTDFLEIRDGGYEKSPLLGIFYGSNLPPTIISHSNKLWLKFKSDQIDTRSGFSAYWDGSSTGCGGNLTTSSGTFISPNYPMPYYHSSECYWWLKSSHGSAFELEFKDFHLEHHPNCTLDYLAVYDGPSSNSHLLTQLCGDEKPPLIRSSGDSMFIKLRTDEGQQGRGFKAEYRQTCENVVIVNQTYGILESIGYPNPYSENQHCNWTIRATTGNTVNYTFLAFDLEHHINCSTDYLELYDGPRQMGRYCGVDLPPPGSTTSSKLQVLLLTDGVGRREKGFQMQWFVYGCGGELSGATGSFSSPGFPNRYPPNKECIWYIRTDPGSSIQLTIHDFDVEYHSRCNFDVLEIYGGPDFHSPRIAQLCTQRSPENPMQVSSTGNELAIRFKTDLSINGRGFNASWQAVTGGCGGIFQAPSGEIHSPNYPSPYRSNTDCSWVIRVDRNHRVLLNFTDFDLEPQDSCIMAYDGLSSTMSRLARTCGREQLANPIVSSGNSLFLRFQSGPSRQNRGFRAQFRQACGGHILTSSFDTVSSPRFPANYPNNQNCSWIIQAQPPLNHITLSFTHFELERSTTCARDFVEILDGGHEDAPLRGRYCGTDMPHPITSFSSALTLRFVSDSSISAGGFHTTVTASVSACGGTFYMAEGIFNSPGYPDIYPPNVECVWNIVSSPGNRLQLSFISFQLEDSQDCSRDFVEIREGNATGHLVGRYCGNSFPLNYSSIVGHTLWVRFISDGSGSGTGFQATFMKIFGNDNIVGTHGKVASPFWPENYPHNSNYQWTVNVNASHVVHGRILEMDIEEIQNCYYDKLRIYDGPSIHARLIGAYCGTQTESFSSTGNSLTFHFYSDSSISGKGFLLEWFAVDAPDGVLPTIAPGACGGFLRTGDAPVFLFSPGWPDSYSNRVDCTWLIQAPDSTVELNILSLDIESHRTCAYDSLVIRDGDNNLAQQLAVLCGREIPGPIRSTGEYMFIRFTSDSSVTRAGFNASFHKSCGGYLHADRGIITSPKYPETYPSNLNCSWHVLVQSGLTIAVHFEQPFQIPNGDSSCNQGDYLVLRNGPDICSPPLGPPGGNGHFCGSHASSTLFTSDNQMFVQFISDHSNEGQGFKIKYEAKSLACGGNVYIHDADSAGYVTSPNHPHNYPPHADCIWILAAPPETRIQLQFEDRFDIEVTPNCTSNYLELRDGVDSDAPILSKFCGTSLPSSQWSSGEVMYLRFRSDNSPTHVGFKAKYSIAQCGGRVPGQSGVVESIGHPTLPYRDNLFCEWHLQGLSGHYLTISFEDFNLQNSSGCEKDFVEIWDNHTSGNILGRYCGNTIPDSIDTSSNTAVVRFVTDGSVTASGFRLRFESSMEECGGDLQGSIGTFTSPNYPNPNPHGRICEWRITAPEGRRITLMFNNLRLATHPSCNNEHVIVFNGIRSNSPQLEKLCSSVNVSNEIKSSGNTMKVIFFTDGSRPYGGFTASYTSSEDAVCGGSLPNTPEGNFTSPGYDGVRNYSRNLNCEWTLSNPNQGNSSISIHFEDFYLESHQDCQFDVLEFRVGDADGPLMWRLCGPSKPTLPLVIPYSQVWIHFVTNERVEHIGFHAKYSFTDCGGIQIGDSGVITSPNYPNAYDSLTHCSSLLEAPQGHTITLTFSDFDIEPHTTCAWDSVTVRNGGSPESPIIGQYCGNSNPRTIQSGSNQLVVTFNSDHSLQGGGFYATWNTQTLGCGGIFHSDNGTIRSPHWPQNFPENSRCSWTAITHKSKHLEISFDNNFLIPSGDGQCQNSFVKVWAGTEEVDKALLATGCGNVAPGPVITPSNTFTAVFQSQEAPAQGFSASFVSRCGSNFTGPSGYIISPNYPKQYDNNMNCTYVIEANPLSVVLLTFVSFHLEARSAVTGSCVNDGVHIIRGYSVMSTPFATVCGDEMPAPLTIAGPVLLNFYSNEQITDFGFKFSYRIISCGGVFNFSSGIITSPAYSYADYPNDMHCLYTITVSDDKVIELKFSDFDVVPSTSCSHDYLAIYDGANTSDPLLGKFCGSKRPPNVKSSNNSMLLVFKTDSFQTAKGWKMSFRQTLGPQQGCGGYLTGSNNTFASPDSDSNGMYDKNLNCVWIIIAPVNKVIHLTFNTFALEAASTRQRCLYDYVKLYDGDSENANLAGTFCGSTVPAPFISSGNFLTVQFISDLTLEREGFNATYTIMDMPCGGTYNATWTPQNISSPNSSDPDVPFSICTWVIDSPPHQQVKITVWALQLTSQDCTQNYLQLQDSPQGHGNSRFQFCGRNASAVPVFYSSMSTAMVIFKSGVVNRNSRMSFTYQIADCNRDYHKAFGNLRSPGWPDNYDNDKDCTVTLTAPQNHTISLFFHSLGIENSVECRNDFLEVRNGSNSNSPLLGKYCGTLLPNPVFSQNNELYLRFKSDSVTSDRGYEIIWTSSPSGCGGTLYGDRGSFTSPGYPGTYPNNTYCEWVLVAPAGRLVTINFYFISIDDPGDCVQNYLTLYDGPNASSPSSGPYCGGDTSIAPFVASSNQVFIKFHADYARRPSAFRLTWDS

[2] = target: T2, human receptor cubilin expressed on CHO cells (human, UniProt O60494 36-3623); assay: uptake of Alexa Fluor 488 labelled Hp(2-2)-Hb by CHO cells, confocal microscopy
T2 construct: also called mock cells, expressing cubilin; control cells

[3] = target: T1, human CD163, ligand-affinity purified …; assay: solid phase competition on CD163 in microtiter wells
[4] = target: T1, human CD163, ligand-affinity purified …; assay: apparent Kd from solid phase competition on CD163 in microtiter wells, on an assumed 2-2 multimer distribution
[5] = target: Hp-Hb complexes (Hp of mixed phenotypes or phenotype not specified) (human, UniProt P00738 19-406); assay: Hp-Hb affinity chromatography

Binder | IC50 [1] | binding result [2] | fold higher functional affinity (avidity) against Hp(1-1)-Hb [3] | Kd [4] | binding result [5]
Hp(2-2)-Hb complex (multimeric haptoglobin-haemoglobin complex, Hb form A0) (other) chain 1: VDSGNDVTDIADDGCPKPPEIAHGYVEHSVRYQCKNYYKLRTEGDGVYTLNDKKQWINKAVGDKLPECEADDGCPKPPEIAHGYVEHSVRYQCKNYYKLRTEGDGVYTLNNEKQWINKAVGDKLPECEAVCGKPKNPANPVQRILGGHLDAKGSFPWQAKMVSHHNLTTGATLINEQWLLTTAKNLFLNHSENATAKDIAPTLTLYVGKKQLVEIEKVVLHPNYSQVDIGLIKLKQKVSVNERVMPICLPSKDYAEVGRVGYVSGWGRNANFKFTDHLKYVMLPVADQDQCIRHYEGSTVPEKKTPKSPVGVQPILNEHTFCAGMSKYQEDTCYGDAGSAFAVHDLEEDTWYATGILSFDKSCAVAEYGVYVKVTSIQDWVQKTIAEN chain 2: not shown chain 3: not shown | ~0.1 µg/mL | no binding (tested: 0.1 µM) | ~10 fold | ~0.2 nM | 
recombinant HbSR fragment corresponding to SRCR domain 5-9 (receptor, domain: SRCR domain 5-9; Expressed in CHO-K1 cells from pSecTag2B; also called HbSR SRCR 5-9; HbSR SRCR domain 5-9) not shown |  |  |  |  | no binding

Source: patent US20020155995A1 (published 2002)
